Values of other authors in patent US9126947B2, “Substituted pyridazine carboxamide compounds” (Xcovery Holding Company LLC, priority 2010, dated 2015).

Tested on: NSCLC with EML4-ALK
Settings: cited from earlier work
[1] = expansion trial, 50 evaluable patients

Question: Which Disease control [1] does the source give for C[C@@H](Oc1cc(-c2cnn(C3CCNCC3)c2)cnc1N)c1c(Cl)ccc(F)c1Cl [PF-2341066, crizotinib] here?
Answer: 90%

Question: And the “Objective response (ORR) by RECIST” value [1]?
Answer: 64%

Question: And the Radiographic response rate (phase I trial, NSCLC patients with EML4-ALK)?
Answer: 60%
